Patent US9993529B2, “Stable formulations of a hyaluronan-degrading enzyme” (Halozyme, Inc., priority 2011, dated 2018)

Legend:
[1] = RP-HPLC insulin apparent solubility / percent recovery (content); conditions: stabilizer screen in rHuPH20/insulin formulation; RP-HPLC on samples stored at 5° C.; semi-quantitative in comparison with NaCl
Procedure: Apparent solubility was measured as the percent insulin recovery as compared to the initial formulations/conditions.
Samples were prepared by withdrawing 100 μL from each vial at every time point and centrifuging prior to loading. Samples were stored in an autosampler at 4° C. prior to use, and were considered stable for 3 days after preparation. All samples were tested in duplicate.
For insulin, 20 μL was injected for each HPLC run.
To determine the apparent solubility, the peak area of insulin/insulin analog main peak and desamido peak were integrated and combined together to calculate the percentage relative to the standards. […] The data were processed using Design-Expert® 7.0 (StatEase) and the “historical data” feature. Insulin percent purity was expressed as the percent of main insulin versus all insulin species.

rHuPH20 = biological target: T1, rHuPH20 (Homo sapiens, UniProt P38567); conditions: stabilizer screen in rHuPH20/insulin formulation ([…] m-cresol, 0.2% phenol, pH 7.3±0.1); 30° C. about one week; semi-quantitative in comparison with NaCl
T1 sequence (P38567 36-482): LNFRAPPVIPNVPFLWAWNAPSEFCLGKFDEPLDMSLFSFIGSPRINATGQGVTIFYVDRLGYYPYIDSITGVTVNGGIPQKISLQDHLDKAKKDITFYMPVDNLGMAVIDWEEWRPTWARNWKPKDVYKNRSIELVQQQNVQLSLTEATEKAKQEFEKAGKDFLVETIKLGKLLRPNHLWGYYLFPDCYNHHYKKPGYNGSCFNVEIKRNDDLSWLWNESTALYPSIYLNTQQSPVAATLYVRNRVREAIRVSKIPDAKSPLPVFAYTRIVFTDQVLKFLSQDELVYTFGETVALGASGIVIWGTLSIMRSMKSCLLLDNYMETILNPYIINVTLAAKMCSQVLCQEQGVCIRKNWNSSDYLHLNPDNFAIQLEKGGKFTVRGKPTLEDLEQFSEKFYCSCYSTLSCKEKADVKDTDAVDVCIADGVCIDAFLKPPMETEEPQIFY
Procedure: The activity of a hyaluronan degrading enzyme can be assessed using methods well known in the art. […] A Hyaluronidase Reference Standard (USP) or National Formulary (NF) Standard Hyaluronidase solution can be used in an assay to ascertain the activity, in units, of any hyaluronidase. In one example, activity is measured using a microturbidity assay. […] The turbidity of the resulting sample is measured at 640 nm after an additional development period.

Human serum albumin
Effect on insulin solubility [1]: No effect
Effect on rHuPH20 enzymatic activity (rHuPH20): No effect
